Assay results as given in patent US20080293048A1, “METHODS AND KITS BASED ON UGT1A7 PROMOTER POLYMORPHISM” (priority 2004, published 2008).

Sequences of proteins named here, by UniProt entry; tags and fusion partners are left off. Residues count along the entry.
UniProt P19224, 27-532: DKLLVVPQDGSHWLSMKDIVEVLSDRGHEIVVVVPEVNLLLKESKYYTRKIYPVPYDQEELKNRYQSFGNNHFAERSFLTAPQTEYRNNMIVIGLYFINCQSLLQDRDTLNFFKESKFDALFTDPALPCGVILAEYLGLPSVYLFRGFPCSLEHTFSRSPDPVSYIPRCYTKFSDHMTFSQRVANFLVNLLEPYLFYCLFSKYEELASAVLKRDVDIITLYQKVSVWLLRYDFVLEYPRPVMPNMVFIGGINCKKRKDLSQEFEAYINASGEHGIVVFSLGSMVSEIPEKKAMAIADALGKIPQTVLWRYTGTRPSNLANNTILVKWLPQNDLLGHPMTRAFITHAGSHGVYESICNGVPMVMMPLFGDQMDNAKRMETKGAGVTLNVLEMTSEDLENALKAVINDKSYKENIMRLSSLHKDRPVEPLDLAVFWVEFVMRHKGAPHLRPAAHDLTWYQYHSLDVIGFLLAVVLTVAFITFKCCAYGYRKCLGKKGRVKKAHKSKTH
UniProt P22309, 26-533: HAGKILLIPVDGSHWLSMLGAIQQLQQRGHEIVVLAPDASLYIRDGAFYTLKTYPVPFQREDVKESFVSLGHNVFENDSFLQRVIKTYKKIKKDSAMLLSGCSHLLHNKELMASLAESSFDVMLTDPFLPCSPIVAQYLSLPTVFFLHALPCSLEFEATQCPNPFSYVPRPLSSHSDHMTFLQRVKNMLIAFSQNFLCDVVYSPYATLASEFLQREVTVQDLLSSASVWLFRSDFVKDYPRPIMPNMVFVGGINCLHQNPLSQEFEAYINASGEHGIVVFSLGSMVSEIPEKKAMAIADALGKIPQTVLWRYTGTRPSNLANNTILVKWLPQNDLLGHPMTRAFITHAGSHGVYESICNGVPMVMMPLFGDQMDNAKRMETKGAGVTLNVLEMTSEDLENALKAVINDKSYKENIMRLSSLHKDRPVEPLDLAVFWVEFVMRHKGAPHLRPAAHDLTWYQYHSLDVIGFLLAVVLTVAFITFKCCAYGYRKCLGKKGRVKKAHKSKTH

Columns and labels:
UGT1A6 = UGT1A6 (Homo sapiens, UniProt P19224)
UGT1A7 = biological target: T1, UGT1A7 (Homo sapiens, UniProt Q9HAW7)
T1 sequence (Q9HAW7 26-530): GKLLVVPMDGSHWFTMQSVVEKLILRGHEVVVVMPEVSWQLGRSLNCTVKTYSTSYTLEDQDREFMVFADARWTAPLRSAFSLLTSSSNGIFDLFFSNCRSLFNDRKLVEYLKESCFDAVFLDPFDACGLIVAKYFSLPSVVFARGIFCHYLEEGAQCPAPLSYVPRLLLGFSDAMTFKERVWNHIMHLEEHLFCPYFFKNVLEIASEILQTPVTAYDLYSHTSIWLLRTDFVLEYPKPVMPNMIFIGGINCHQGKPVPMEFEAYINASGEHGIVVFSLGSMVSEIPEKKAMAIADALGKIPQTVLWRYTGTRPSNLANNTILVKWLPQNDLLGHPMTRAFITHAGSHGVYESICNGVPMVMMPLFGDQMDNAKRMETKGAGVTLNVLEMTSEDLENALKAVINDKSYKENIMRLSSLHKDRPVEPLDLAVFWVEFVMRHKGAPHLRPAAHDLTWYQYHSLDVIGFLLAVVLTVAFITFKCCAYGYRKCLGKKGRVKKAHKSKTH

UGT1A10 = UGT1A10 (Homo sapiens, UniProt Q9HAW8)
UGT1A1 = UGT1A1 (Homo sapiens, UniProt P22309)

Which results are given for `CCc1c2c(nc3ccc(O)cc13)-c1cc3c(c(=O)n1C2)COC(=O)[C@]3(O)CC` [SN-38, 7-ethyl-10-hydroxycamptothecin]?
SN-38 glucuronidation by isoform (UGT1A6): relevant isoforms; SN-38 glucuronidation by isoform (UGT1A7): relevant isoforms; specific UGT activity with SN-38, UGT1A7 higher than UGT1A1, UGT1A6 and UGT1A10 (UGT1A7): 5 fold; SN-38 glucuronidation by isoform (UGT1A10): relevant isoforms; SN-38 glucuronidation by isoform (UGT1A1): relevant isoforms
